Data from US9486422B2, “Small molecule inhibitors of Mcl-1 and the uses of thereof” (THE REGENTS OF THE UNIVERSITY OF MICHIGAN, priority 2011, dated 2016).
Like-named read-outs stand apart in the source and are kept apart here.

Sequences of proteins named here, by UniProt entry; tags and fusion partners are left off. Residues count along the entry.
UniProt Q07820, 171-327: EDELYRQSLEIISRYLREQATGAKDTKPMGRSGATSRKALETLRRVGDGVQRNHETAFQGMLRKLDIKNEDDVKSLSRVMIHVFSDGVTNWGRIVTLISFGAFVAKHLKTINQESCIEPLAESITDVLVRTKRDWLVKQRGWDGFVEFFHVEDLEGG

Biological target: Mcl-1 (Homo sapiens, UniProt Q07820)
Assay: FP-based binding assay, Mcl-1
Details: for Ki / IC50: competitive FP; for Ki: Ki calculated from IC50, read-out: Mcl-1 Ki ± SD

| Compound | fold improved binding to Mcl-1 compared to 2 | Ki | IC50 (read-out: IC50 Mcl-1) | binding to Mcl-1, result in words (FP assay) | IC50 (Flu-BID 2 nM, Mcl-1 90 nM, read-out: Mcl-1 IC50 ± SD) |
| --- | --- | --- | --- | --- | --- |
| O=C(O)CSc1cc(NS(=O)(=O)c2ccc(Oc3ccccc3)cc2)c2ccccc2c1O [Compound 18, 2-((1-Hydroxy-4-(4-phenoxyphenylsulfonamido)naphthalen-2-yl)thio)acetic acid] | around 19 fold | 0.18 ± 0.05 µM | 0.74 µM |  |  |
| O=C(O)CSc1cc(NC(=O)c2ccc(Br)cc2)c2ccccc2c1O [Compound 23, 2-((4-(4-Bromobenzamido)-1-hydroxynaphthalen-2-yl)thio)acetic acid] |  |  |  | the binding to Mcl-1 was abolished |  |
| O=C(O)CSc1cc(NC(=O)Cc2ccc(Cl)cc2)c2ccccc2c1O [Compound 26, 2-((4-(2-(4-Chlorophenyl)acetamido)-1-hydroxynaphthalen-2-yl)thio)acetic acid] |  | 12.5 ± 1.24 µM |  |  | 45.7 ± 4.5 µM |
